Data published in patent EP0513703A2, “Carbamate esters of eseroline having anticholinesterase activity, a process for their preparation and relative pharmaceutical compositions containing them as the active principle” (priority 1991, dated 1992).
Several values for one entry are separate records, joined by “and”; a condition that tells them apart may be missing. Equal values may be shown once.

Assays:
Set-up in all cases: species or system Wistar male rats
Conditions in all cases: rat, 20 minutes after oral administration
[1] = test system: acetylcholinesterase (AchE); assay: In vivo anticholinesterase activity in brain and serum, Ellman method (class D derivatives)
[2] = test system: acetylcholinesterase (AchE); assay: In vivo anticholinesterase activity in brain and serum, Ellman method (class A derivatives)
acetylcholinesterase = assay: In vivo anticholinesterase activity in brain and serum (class E derivatives)
[3] = 3.5 mg/kg/os, listed as MGS 101, 3.5 mg/kg
[4] = 0.4 mg/kg/os, listed as PHISOSTIGMINE, 0.4 mg/kg

**Q.** For `CNCCCCCCCNC(=O)Oc1ccc2c(c1)[C@]1(C)CCN(C)[C@@H]1N2C` [MGF001, (3a S-cis) - 1,2,3,3a,8,8a hexahydro - 1,3a,8 - trimethyl pyrrol [2,3-b]-indol-5-ol-N-methyl-aminoheptyl carbamate ester], which “INHIBITION % OF ACETYLCHOLINESTERASE AVERAGE VALUE ± EXPERIMENTAL ERROR brain” value ([1]; 1 mg/kg/os) is on record?
**A.** 14.48 ± 4.25%

**Q.** What about the “INHIBITION % OF ACETYLCHOLINESTERASE AVERAGE VALUE ± EXPERIMENTAL ERROR serum” value ([1]; 1 mg/kg/os) of the same compound?
**A.** 19.23 ± 2.28%

**Q.** What about the “INHIBITION % OF ACETYLCHOLINESTERASE AVERAGE VALUE ± EXPERIMENTAL ERROR brain” value ([1]; 1.5 mg/kg/os) of the same compound?
**A.** 31.11 ± 3.41%

**Q.** And the “INHIBITION % OF ACETYLCHOLINESTERASE AVERAGE VALUE ± EXPERIMENTAL ERROR serum” value ([1]; 1.5 mg/kg/os)?
**A.** 36.58 ± 1.53%

**Q.** And the “INHIBITION % OF ACETYLCHOLINESTERASE AVERAGE VALUE ± EXPERIMENTAL ERROR serum” value ([1]; 2 mg/kg/os)?
**A.** 53.31 ± 7.47%

**Q.** What about the “INHIBITION % OF ACETYLCHOLINESTERASE AVERAGE VALUE ± EXPERIMENTAL ERROR brain” value ([1]; 2 mg/kg/os, listed as MGF 001, 2 mg/kg) of the same compound?
**A.** 59.3 ± 11.20%

**Q.** What does the source list for `CC[C@H](C)[C@H](NC(=O)Oc1ccc2c(c1)[C@]1(C)CCN(C)[C@@H]1N2C)C(=O)O` [MGS101]?
**A.** INHIBITION % OF ACETYLCHOLINESTERASE AVERAGE VALUE ± EXPERIMENTAL ERROR brain ([2]; 1.5 mg/kg/os): 20.31 ± 3.12%; INHIBITION % OF ACETYLCHOLINESTERASE AVERAGE VALUE ± EXPERIMENTAL ERROR serum ([2]; 1.5 mg/kg/os): 17.4 ± 2.14%; INHIBITION % OF ACETYLCHOLINESTERASE AVERAGE VALUE ± EXPERIMENTAL ERROR brain ([2]; 2.5 mg/kg/os): 41.60 ± 1.64%; INHIBITION % OF ACETYLCHOLINESTERASE AVERAGE VALUE ± EXPERIMENTAL ERROR serum ([2]; 2.5 mg/kg/os): 37.31 ± 4.86%; INHIBITION % OF ACETYLCHOLINESTERASE AVERAGE VALUE ± EXPERIMENTAL ERROR brain [2, 3]: 53.8 ± 11.25% and 53.8 ± 1.64%; INHIBITION % OF ACETYLCHOLINESTERASE AVERAGE VALUE ± EXPERIMENTAL ERROR serum [2, 3]: 60.44 ± 7.38% and 60.44 ±4.86%; INHIBITION % OF ACETYLCHOLINESTERASE AVERAGE VALUE ± EXPERIMENTAL ERROR brain ([2]; 4.5 mg/kg/os): 76.42 ± 9.38%; INHIBITION % OF ACETYLCHOLINESTERASE AVERAGE VALUE ± EXPERIMENTAL ERROR serum ([2]; 4.5 mg/kg/os): 79.31 ± 3.81%

**Q.** How did the “INHIBITION % OF ACETYLCHOLINESTERASE AVERAGE VALUE ± EXPERIMENTAL ERROR brain” value ([1]; 0.2 mg/kg/os) turn out when `CNC(=O)Oc1ccc2c(c1)[C@]1(C)CCN(C)[C@@H]1N2C` [Physostigmine, physostigmine, reference compound] was run?
**A.** 16.23 ± 3.41%

**Q.** What about the “INHIBITION % OF ACETYLCHOLINESTERASE AVERAGE VALUE ± EXPERIMENTAL ERROR serum” value ([1]; 0.2 mg/kg/os) of the same compound?
**A.** 17.12 ± 2.36%

**Q.** And the “INHIBITION % OF ACETYLCHOLINESTERASE AVERAGE VALUE ± EXPERIMENTAL ERROR brain” value ([1]; 0.3 mg/kg/os)?
**A.** 29.22 ± 4.36%

**Q.** And the “INHIBITION % OF ACETYLCHOLINESTERASE AVERAGE VALUE ± EXPERIMENTAL ERROR serum” value ([1]; 0.3 mg/kg/os)?
**A.** 34.78 ± 6.83%

**Q.** What about the “INHIBITION % OF ACETYLCHOLINESTERASE AVERAGE VALUE ± EXPERIMENTAL ERROR brain” value ([1]; 0.4 mg/kg/os) of the same compound?
**A.** 56.31 ± 7.35%

**Q.** And the “INHIBITION % OF ACETYLCHOLINESTERASE AVERAGE VALUE ± EXPERIMENTAL ERROR serum” value ([1]; 0.4 mg/kg/os)?
**A.** 51.28 ± 5.49%

**Q.** And the “INHIBITION % OF ACETYLCHOLINESTERASE AVERAGE VALUE ± EXPERIMENTAL ERROR brain” value (acetylcholinesterase; 0.2 mg/kg/os)?
**A.** 11.31 ± 6.36%

**Q.** What about the “INHIBITION % OF ACETYLCHOLINESTERASE AVERAGE VALUE ± EXPERIMENTAL ERROR serum” value (acetylcholinesterase; 0.2 mg/kg/os) of the same compound?
**A.** 14.63 ± 2.33%

**Q.** What about the “INHIBITION % OF ACETYLCHOLINESTERASE AVERAGE VALUE ± EXPERIMENTAL ERROR brain” value (acetylcholinesterase; 0.3 mg/kg/os) of the same compound?
**A.** 33.67 ± 2.44%

**Q.** And the “INHIBITION % OF ACETYLCHOLINESTERASE AVERAGE VALUE ± EXPERIMENTAL ERROR serum” value (acetylcholinesterase; 0.3 mg/kg/os)?
**A.** 29.4 ± 3.41%

**Q.** What about the “INHIBITION % OF ACETYLCHOLINESTERASE AVERAGE VALUE ± EXPERIMENTAL ERROR brain” value (acetylcholinesterase; 0.4 mg/kg/os) of the same compound?
**A.** 54.23 ± 8.17%

**Q.** What about the “INHIBITION % OF ACETYLCHOLINESTERASE AVERAGE VALUE ± EXPERIMENTAL ERROR serum” value (acetylcholinesterase; 0.4 mg/kg/os) of the same compound?
**A.** 59.4 ± 7.56%

**Q.** What about the “INHIBITION % OF ACETYLCHOLINESTERASE AVERAGE VALUE ± EXPERIMENTAL ERROR brain” value ([2]; 0.2 mg/kg/os) of the same compound?
**A.** 16.72 ± 1.26%

**Q.** What about the “INHIBITION % OF ACETYLCHOLINESTERASE AVERAGE VALUE ± EXPERIMENTAL ERROR serum” value ([2]; 0.2 mg/kg/os) of the same compound?
**A.** 10.56 ± 1.45%

**Q.** And the “INHIBITION % OF ACETYLCHOLINESTERASE AVERAGE VALUE ± EXPERIMENTAL ERROR brain” value ([2]; 0.3 mg/kg/os)?
**A.** 38.17 ± 9.21%

**Q.** And the “INHIBITION % OF ACETYLCHOLINESTERASE AVERAGE VALUE ± EXPERIMENTAL ERROR serum” value ([2]; 0.3 mg/kg/os)?
**A.** 33.32 ± 6.43%

**Q.** What about the “INHIBITION % OF ACETYLCHOLINESTERASE AVERAGE VALUE ± EXPERIMENTAL ERROR brain” value [2, 4] of the same compound?
**A.** 52.30 ± 8.12% and 52.30 ± 9.12%

**Q.** And the “INHIBITION % OF ACETYLCHOLINESTERASE AVERAGE VALUE ± EXPERIMENTAL ERROR serum” value [2, 4]?
**A.** 55.21 ± 11.95% and 55.11 ± 11.95%

**Q.** For `CN1CC[C@@]2(C)c3cc(OC(=O)NCCCCCCCCNC(=O)Oc4ccc5c(c4)[C@]4(C)CCN(C)[C@@H]4N5C)ccc3N(C)[C@@H]12`, which “INHIBITION % OF ACETYLCHOLINESTERASE AVERAGE VALUE ± EXPERIMENTAL ERROR brain” value (acetylcholinesterase; 0.1 mg/kg/os) is on record?
**A.** 16.14 ± 9.43%

**Q.** What about the “INHIBITION % OF ACETYLCHOLINESTERASE AVERAGE VALUE ± EXPERIMENTAL ERROR serum” value (acetylcholinesterase; 0.1 mg/kg/os) of the same compound?
**A.** 21.42 ± 3.57%

**Q.** And the “INHIBITION % OF ACETYLCHOLINESTERASE AVERAGE VALUE ± EXPERIMENTAL ERROR brain” value (acetylcholinesterase; 0.15 mg/kg/os)?
**A.** 38.52 ± 6.41%

**Q.** What about the “INHIBITION % OF ACETYLCHOLINESTERASE AVERAGE VALUE ± EXPERIMENTAL ERROR serum” value (acetylcholinesterase; 0.15 mg/kg/os) of the same compound?
**A.** 27.34 ± 6.22%

**Q.** And the “INHIBITION % OF ACETYLCHOLINESTERASE AVERAGE VALUE ± EXPERIMENTAL ERROR brain” value (acetylcholinesterase; 0.2 mg/kg/os)?
**A.** 56.12 ± 7.21%

**Q.** And the “INHIBITION % OF ACETYLCHOLINESTERASE AVERAGE VALUE ± EXPERIMENTAL ERROR serum” value (acetylcholinesterase; 0.2 mg/kg/os)?
**A.** 52.36 ± 11.3%

**Q.** What about the “INHIBITION % OF ACETYLCHOLINESTERASE AVERAGE VALUE ± EXPERIMENTAL ERROR brain” value (acetylcholinesterase; 0.25 mg/kg/os) of the same compound?
**A.** 83.40 ± 12.62%

**Q.** And the “INHIBITION % OF ACETYLCHOLINESTERASE AVERAGE VALUE ± EXPERIMENTAL ERROR serum” value (acetylcholinesterase; 0.25 mg/kg/os)?
**A.** 76.81 ± 8.38%
